The assay deals with white mice. Put plainly: muscle relaxant effect in white mice.

For `COC1OC2OC3(C)C(OC(=O)Nc4ccccc4)CC(C2C)C13` (stereo not drawn) [Example 17, 4β-(N-Phenylcarbamyloxy)-8-methoxy-3,10-dimethyl-2,9-dioxatricyclo[4.3.1.0^3,7]decane], the “muscle relaxant effect (in words)” value is recorded as “effective as a muscle relaxant (similar to the action of phenobarbital)”.

(Values after patent US4016176A, “Esters of 4-hydroxy-2,9-dioxatricyclo[4.3.1.0^3,7 ] decanes and processes for their production” (Kali-Chemie Pharma GmbH, priority 1973, dated 1977).)
